The results in this text go back to ChEMBL document CHEMBL1148394, “Design, synthesis, and in vitro biological evaluation of small molecule inhibitors of estrogen receptor alpha coactivator binding” (J Med Chem, 2004).

Protein sequences, listed by entry. Tags and fused reporters are not part of them. Lines headed by an entry give the natural chain unless they say otherwise; changes in a name come on top.
UniProt Q92731: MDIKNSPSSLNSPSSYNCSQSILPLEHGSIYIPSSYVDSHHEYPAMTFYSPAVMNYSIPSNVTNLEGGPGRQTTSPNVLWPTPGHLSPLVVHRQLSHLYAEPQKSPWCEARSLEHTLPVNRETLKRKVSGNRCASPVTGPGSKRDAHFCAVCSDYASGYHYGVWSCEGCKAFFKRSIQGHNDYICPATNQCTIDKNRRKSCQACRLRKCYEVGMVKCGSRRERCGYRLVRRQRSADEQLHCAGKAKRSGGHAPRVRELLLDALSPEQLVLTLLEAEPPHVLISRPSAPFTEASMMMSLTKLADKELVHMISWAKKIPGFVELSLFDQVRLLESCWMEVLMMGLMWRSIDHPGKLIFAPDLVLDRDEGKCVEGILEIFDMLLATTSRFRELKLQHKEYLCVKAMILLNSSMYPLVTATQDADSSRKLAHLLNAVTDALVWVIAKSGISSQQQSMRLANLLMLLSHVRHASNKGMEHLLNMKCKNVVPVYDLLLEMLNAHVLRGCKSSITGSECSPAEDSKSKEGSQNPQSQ
UniProt P03372: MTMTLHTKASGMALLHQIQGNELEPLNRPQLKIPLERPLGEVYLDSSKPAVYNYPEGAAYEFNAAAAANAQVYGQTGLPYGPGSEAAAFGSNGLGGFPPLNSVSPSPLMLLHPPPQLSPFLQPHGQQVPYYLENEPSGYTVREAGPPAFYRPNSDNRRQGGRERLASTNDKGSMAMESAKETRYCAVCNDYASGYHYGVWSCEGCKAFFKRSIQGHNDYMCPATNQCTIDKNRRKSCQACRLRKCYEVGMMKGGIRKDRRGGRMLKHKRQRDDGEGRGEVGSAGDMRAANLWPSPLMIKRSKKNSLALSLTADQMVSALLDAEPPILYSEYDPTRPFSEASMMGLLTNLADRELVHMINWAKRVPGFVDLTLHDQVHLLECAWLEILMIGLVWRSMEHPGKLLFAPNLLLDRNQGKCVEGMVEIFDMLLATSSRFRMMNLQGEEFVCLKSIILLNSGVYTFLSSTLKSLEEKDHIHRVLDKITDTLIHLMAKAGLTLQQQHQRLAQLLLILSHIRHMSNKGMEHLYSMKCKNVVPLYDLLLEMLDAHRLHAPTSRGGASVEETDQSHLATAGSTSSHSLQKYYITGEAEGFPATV

The target in this experiment is Estrogen receptor (Homo sapiens, UniProt Q92731+P03372). Put plainly: Binding affinity towards estrogen receptor was determined. It counts as protein assay. In outline:
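Competitive radiometric binding to the ERα ligand-binding pocket, displacing [3H]estradiol and reported as relative binding affinity with estradiol set at 100%. Run per published methods. Receptor sources used in the work were lamb uterine cytosol, purified full-length human ERα and ERβ, or His6-tagged ERα LBD (304–554); which of these served here is unspecified.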

Broadly, the Ki is the dissociation constant of the complex between target and ligand, obtained from inhibition or displacement. A high value points to weaker binding.

Compound `CCCCc1cc(NCCC)nc(NCCC)n1` had a Ki of 32 µM.
